Biological target: human GLP-1 receptor (human) (UniProt P43220)
Test: cell-based or functional assay

Chains of the proteins cited; added tags and fusions are not shown. Residues count along the entry.
UniProt P43220, 24-463: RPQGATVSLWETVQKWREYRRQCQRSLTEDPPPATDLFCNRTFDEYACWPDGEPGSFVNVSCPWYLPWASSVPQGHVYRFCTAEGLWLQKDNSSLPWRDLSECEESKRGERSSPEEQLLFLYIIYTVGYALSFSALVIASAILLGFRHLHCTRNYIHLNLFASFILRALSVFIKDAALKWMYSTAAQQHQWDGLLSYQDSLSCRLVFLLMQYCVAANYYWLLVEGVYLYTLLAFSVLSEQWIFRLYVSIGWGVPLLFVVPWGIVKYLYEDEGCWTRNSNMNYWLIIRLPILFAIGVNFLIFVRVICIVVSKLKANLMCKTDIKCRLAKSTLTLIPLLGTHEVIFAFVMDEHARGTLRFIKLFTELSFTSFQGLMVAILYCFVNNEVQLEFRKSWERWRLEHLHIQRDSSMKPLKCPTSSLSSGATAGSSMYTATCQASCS

Substance: Native GLP-1 (peptide)
- EC50 hGLP1R (cAMP activity assay): 8 pM

From patent US20180339017A1 (Merck Sharp & Dohme, published 2018)
